Reference: ChEMBL document CHEMBL2321744 (J Med Chem, 2013)

Chains of the proteins cited; added tags and fusions are not shown. Lines headed by an entry give the natural chain unless they say otherwise; changes in a name come on top.
UniProt O14939: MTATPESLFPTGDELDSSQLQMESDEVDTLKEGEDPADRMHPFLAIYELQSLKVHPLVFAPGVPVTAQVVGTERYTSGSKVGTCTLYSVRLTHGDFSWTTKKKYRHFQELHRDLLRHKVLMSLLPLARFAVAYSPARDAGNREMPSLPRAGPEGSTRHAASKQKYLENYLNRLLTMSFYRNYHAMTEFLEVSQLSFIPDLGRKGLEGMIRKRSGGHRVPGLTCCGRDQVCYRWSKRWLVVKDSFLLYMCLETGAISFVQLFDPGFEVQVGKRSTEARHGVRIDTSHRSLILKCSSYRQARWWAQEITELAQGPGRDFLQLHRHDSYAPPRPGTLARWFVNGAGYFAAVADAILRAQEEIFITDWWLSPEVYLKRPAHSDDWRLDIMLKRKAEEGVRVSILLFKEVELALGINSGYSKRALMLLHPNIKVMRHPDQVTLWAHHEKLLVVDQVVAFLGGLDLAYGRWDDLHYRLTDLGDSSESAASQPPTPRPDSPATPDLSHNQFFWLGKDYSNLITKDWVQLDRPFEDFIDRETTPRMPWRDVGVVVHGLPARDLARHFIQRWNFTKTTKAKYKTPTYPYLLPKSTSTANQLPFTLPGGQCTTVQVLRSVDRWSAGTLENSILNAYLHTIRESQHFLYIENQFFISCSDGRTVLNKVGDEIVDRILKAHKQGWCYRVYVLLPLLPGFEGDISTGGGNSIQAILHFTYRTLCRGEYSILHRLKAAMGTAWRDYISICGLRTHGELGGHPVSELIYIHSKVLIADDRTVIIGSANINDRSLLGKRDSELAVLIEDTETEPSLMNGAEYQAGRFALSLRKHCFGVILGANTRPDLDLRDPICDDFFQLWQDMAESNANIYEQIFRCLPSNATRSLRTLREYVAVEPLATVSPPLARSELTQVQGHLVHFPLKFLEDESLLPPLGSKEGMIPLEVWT

Biological target: Phospholipase D2 (Homo sapiens, UniProt O14939)
Assay: Inhibition of GFP-tagged PLD2 in HEK293 cells assessed as deuterated 1-butanol incorporation at […] pretreated for 5 mins prior to substrate addition measured after 30 mins by mass spectrometry
Assay type: cell-based

Q: For `O=C(NCCN1CCC2(CC1)C(=O)NCN2c1cccc(F)c1)c1ccc2ccccc2c1`, which inhibition is on record?
A: Its inhibition is “Active”.

Active and inactive are the calls of the source. No cut-off for these calls is given here.
